Results: PubChem BioAssay AID1645851 (National Center for Advancing Translational Sciences (NCATS), 2021)
The list shows a part of the results, in another mix than the full data. The source made the active and inactive calls. Rule as the data show it: active = activity change below about -25%; inactive = the rest.
% is scaled to controls: 0 for no effect and ±100 for the full control effect.
Also: series mostly up to about 58 µM.

Protein sequences, listed by entry. Tags and fused reporters are not part of them. Lines headed by an entry give the natural chain unless they say otherwise; changes in a name come on top.
UniProt Q92551: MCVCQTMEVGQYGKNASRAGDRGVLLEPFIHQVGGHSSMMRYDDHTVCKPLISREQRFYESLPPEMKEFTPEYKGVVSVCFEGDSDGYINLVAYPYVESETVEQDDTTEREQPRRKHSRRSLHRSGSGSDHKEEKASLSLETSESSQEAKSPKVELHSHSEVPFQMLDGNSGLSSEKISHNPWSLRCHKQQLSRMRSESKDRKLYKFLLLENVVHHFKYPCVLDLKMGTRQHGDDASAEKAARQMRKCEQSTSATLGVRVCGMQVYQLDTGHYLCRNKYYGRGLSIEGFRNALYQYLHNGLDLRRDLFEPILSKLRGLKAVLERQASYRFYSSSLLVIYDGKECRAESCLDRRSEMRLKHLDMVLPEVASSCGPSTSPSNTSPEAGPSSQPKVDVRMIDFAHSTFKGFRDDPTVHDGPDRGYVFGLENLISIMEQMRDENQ

The molecules below were run against Inositol hexakisphosphate kinase 1 (Homo sapiens) (UniProt Q92551) (assay: Primary qHTS assay for small molecule inhibitors of Inositol hexaphosphate kinase 1 (IP6K1)). Settings: ADP-Glo luminescence, 2 h, stronger effect = lower value.
Text: Assay Provider: Huijun Wei, M.S., Ph.D. School of Medicine, Johns Hopkins University, Baltimore, MD Inositol hexakisphosphate kinases (IP6Ks) catalyze pyrophosphorylation of inositol hexakisphosphate (IP6) into inositol 5-diphospho-1,2,3,4,6-pentakisphosphate (IP7), which is involved in numerous areas of cell physiology including glucose homeostasis, blood coagulation and neurological development. Inhibition of IP6Ks may be effective for the treatment of Type II diabetes, thrombosis, and psychiatric disorders. We performed a quantitative high throughput screen (qHTS) of 158,410 compounds for IP6K1 inhibitors using ankinase activity ADP-Glo Max assay. […] Medicinal chemistry SAR efforts in three chemical series identified potent IP6K1 inhibitors, which were further validated in an orthogonal LC-MS IP7 analysis.
PROTOCOL TABLE SEQUENCE No. (e.g., 1, 2, 3, etc.); […] (e.g., Cells, Incubation, Reagent, etc.); VALUE and DESCRIPTION. 1. Reagent, 3 uL of 1.3 mM ATP and 130 uM IP6 mixture in assay buffer was dispensed to a white, 1536-well assay plate. 2. Compound, 23 nL of compounds of the top two doses (57.5 uM and 19.1 uM final concentration) of the libraries were dispensed into the mixture using the Kalypsis pintool. 3. Reagent, 1 uL of 2.4 uM IP6K1 was dispensed to the assay plates. 4. Incubation, 2 hr incubation at room temperature. 5. Reagent, 2 uL of ADP-Glo reagent was added to the wells. 6. Incubation, 1 hr incubation at room temperature. 7. Reagent, 4 uL or ADP-Glo substate was added to the wells. 8. Incubation, 45 min incubation at room temperature. 9. Detection, luminescence signal was detected using the ViewLux microplate imager (PerkinElmer).
With CNCc1cc2ccccc2o1 the activity change was inactive: 4.36%.
For CN(C)C1(c2ccccc2)CCC2(CC1)OCCc1c2[nH]c2ccc(F)cc12 (stereo unspecified), the activity change was inactive: 12.5%.
For CN(C(=O)Cc1ccccc1)[C@H]1CC[C@@]2(CCCO2)C[C@@H]1N1CCCC1, the activity change was inactive: -10.2%.
Cc1cc([N+](=O)[O-])cc([N+](=O)[O-])c1O was tested, and the activity change was inactive: 17.4%.
CN(C(=O)Cc1ccc(Cl)c(Cl)c1)[C@H]1CCCC[C@H]1N1CCCC1 was tested, and the activity change was inactive: 7.72%.
In the case of CCNC(C)Cc1ccc2c(c1)OCO2 (stereo unspecified), the activity change was inactive: 4.49%.
For O=C(O[C@H]1CN2CCC1CC2)C1NCc2ccccc2[C@@H]1c1ccccc1 (stereo partly specified), the activity change was inactive: -4.57%.
In the case of CNCc1cccc(C)n1, the activity change was inactive: 10.5%.
CCn1c(=O)n([C@@H]2CCN(CC3CCCCCCC3)C[C@H]2CO)c2ccccc21 was tested, and the activity change was inactive: 19%.
For NC(=O)Nc1ccc([As](=O)(O)O)cc1, the activity change was inactive: 8.77%.
With CN(C(=O)Cc1ccc(Cl)c(Cl)c1)[C@H]1CC[C@@]2(CCCO2)C[C@@H]1N1CCCC1 the activity change was inactive: 12.7%.
